Data from doi:10.1101/521815.

Target: GST-ABIN-1 UBAN (aa 463-532) E484A (mouse) (UniProt Q9WUU8)
Assay: SPR

Substance “M1-linked tetra-ubiquitin (from UniProt P0CG48 1-76; P0CG48 1-76; P0CG48 1-76; P0CG48 1-76)” has a Kd of 623 nM.
